The values below come from PMC5749160, “Disruption of an RNA-binding hinge region abolishes LHP1-mediated epigenetic repression” (Genes & Development, 2017).

For this test, the target named is T1, GST-LHP1 (LIKE HETEROCHROMATIN PROTEIN 1, full length, glutathione-S-transferase fusion) (Arabidopsis, UniProt Q946J8 1-445).
T1 construct: LIKE HETEROCHROMATIN PROTEIN 1 (LHP1), Arabidopsis, full length, expressed from pGEX-LHP1; source: E. coli BL21 Rosetta (DE3) pLysS, purified (glutathione-sepharose 4B)
T1 sequence (looked up): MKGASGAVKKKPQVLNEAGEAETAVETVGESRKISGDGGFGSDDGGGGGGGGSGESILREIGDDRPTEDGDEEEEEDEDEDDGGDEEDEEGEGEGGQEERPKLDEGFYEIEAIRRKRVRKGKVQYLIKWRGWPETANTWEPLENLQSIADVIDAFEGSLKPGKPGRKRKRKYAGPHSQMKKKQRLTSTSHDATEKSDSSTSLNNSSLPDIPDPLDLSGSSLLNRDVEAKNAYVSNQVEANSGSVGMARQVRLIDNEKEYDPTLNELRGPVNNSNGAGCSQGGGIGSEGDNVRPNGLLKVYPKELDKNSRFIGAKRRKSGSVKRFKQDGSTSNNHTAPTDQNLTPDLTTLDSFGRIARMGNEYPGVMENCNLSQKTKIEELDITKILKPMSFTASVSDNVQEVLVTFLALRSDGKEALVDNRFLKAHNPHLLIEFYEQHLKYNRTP
In words: pull-down; biotinylated histone peptide (0.5 ug) held on streptavidin Dynabeads; GST fusion protein 5 uM in 50 mM Tris pH 7.5, 150 mM NaCl, 0.1% NP-40, 1 mM DTT, 15 min at 4 C; bound protein detected by anti-GST immunoblot. The following applies: both partners purified.

B1: histone H3 […] peptide with K9me2, biotinylated (peptide)
peptide: not shown
modifications: dimethyl-lysine at K9 (K9me2); biotin at the C-terminus (-GGK-Biotin)
notes: histone H3 […]; linker before the biotin; also called H3K9me2; H3K9me2-modified histone peptide; source: synthetic peptide, bought: Anaspec
Turning to B1, the binding result is recorded as “binds”.

B2: histone H3 […] peptide with K9me3, biotinylated (peptide)
peptide: not shown
modifications: trimethyl-lysine at K9 (K9me3); biotin at the C-terminus (-GGK-Biotin)
notes: histone H3 […]; linker before the biotin; also called H3K9me3; H3K9me3-modified histone peptide; source: synthetic peptide, bought: Anaspec
As to B2, the binding result was “binds”.
